In PubChem BioAssay AID488924 (Johns Hopkins Ion Channel Center, 2010):
This is a selection; strong and weak results do not stand in their true shares. The source made the active and inactive calls.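 How the source made its calls: active means membrane potential signal moves up or down beyond 5 SD from buffer-only wells, on both duplicate plates; inactive means the rest.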

Test: nonspecific voltage dye response without TRPC6 – cell-based, parental HEK293, counter-screen for TRPC6 modulator project, confirmation (AID 488924)
Conditions: parental HEK293, membrane potential dye fluorescence; at 10 µM

SMILES | membrane potential signal change
O=C(OC1CN2CCC1CC2)C12CC3CC(CC(C3)C1)C2 (stereo unspecified) | active: 102%
